According to patent US20210223237A1, “COMPOSITIONS AND METHODS FOR STUDYING DRUG METABOLISM” (Boehringer Ingelheim International GmbH, priority 2020, published 2021):

Assay: Microsomal binding (fu,mic) using rapid equilibrium dialysis (RED)
Settings: compound 1.0 μM, (SD)

Cc1ncc2n1-c1ccc(Cl)cc1C(c1ccccc1F)=NC2 [Midazolam, midazolam]
fu,mic (HLM 0.50 mg/ml): 0.67 (0.06)
fu,mic (HLM 1.0 mg/ml): 0.52 (0.08)
